Reference: US20020086061A1 (priority 1999, published 2002)

Settings: 500 ml phosphate buffer, Type II, paddle
Method: The media used was a 500 ml phosphate buffer, Type II, and dissolution was assisted by using a paddle.

intrinsic dissolution rate: 0.00086 mg min^−1 cm-^−2
SMILES: CCOC(=O)C1=C(C)NC(C)=C(C(=O)OC)C1c1cccc(Cl)c1Cl (racemic) [felodipine]
